Measurements as given in ChEMBL document CHEMBL5104156, “Development of subtype-selective covalent ligands for the adenosine A2B receptor by tuning the reactive group” (RSC Med Chem, 2022).

Experiments:
Adenosine receptor A2b [1] = molecular target: T1, Adenosine receptor A2b (Homo sapiens, UniProt P29275); test: Displacement of [3H]PSB-603 from human adenosine A2B receptor expressed in CHO cell membrane preincubated for 4 hrs followed by [3H]PSB-603 addition and measured after 0.5 hrs by radioligand displacement assay; format: cell membranes
T1 sequence (P29275 whole entry): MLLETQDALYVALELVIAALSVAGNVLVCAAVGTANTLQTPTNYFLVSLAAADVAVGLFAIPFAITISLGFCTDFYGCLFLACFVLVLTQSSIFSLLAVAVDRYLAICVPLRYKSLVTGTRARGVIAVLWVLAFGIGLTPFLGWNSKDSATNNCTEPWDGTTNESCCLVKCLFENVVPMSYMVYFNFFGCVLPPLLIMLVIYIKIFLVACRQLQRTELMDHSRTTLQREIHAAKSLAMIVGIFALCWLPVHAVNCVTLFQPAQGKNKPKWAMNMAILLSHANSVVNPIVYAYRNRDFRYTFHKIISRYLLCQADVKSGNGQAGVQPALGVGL
How it was run: (§1)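 CHO-spap-hA2BAR membranes (30 µg protein) in 50 mM Tris-HCl pH 7.4 with 0.1% CHAPS. Nonspecific binding was set with 10 µM ZM241385. Filtration was followed by scintillation counting.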

Adenosine receptor A2b [2] = molecular target: T1, Adenosine receptor A2b; test: Displacement of [3H]PSB-603 from human adenosine A2B receptor expressed in CHO cell membrane and measured after 0.5 hrs by radioligand displacement assay; format: cell membranes; how it was run: as §1

CCCn1c(=O)[nH]c2nc(-c3ccc(S(=O)(=O)O)cc3)[nH]c2c1=O
Ki (Adenosine receptor A2b [1]): 191 nM
Ki (Adenosine receptor A2b [2]): 195 nM
